Results: patent publication US20240239799A1, “(S)-1-(5-((PYRIDIN-3-YL)THIO)PYRAZIN-2-YL)-4'H,6'H-SPIRO[PIPERIDINE-4,5'-PYRROLO [1,2-B]PYRAZOL]-4'-AMINE DERIVATIVES AND SIMILAR COMPOUNDS AS SHP2 INHIBITORS FOR THE TREATMENT OF E.G. CANCER” (C.N.C.C.S. S.C.A.R.L. COLLEZIONE NAZIONALE DEI COMPOSTI …, priority 2021, published 2024)

Tests used:
[1] = target: T1, SHP-2 enzyme (Met1-Leu525) (Homo sapiens, UniProt Q06124); test: SHP2 inhibition enzymatic assay (DiFMUP substrate, IRS1 peptide activation); format: biochemical; settings: 0.5 nM SHP-2, 500 nM IRS1 peptide, 75 μM DiFMUP; read-out: SHP2wt - IC50
T1 construct: synthetized by Origene, Met1-Leu525, cat #TP750155; purchased Origene TP750155
Protocol: The assay was performed as described in YP Chen et al, Nature (535)2016. Assay volume of 20 μL/well was assembled in 384 well black polystyrene low-binding microplates (Greiner), using the following buffer: 60 mM HEPES pH 7.2, 75 mM NaCl, 75 mM KCl, 1 mM EDTA pH 8, 0.05% tween-20, 5 mM DTT. The SHP-2 enzyme (synthetized by Origene, Met1-Leu525, cat #TP750155) was used at a final concentration of 0.5 nM. The enzyme was activated by 500 nM IRS1 peptide (sequence: H2N-LN(pY)IDLDLV(dPEG8)LST(pY)ASINFQK-amide SEQ ID No. 1) and incubated with 75 μM DiFMUP (Sigma) as substrate.
Briefly, DMSO serially diluted testing compounds were transferred to the bottom of the assay plate. SHP2 was then added together with the IRS1 peptide 30 min post incubation, the DiFMUP substrate was added to the reaction and incubated 30 min at rt. Finally 5 μL of 160 μM bpV (Potassium bisperoxo[1,10-phenanthroline]oxovanadate[V], Sigma) were added to stop and quench the reaction. The fluorescence was detected by a microplate reader (Envision, PerkinElmer) according to the DiFMUP excitation and emission wavelength. The lower the fluorescence the higher the SHP2 inhibition.
The activity of each compound dilution was calculated as percentage of inhibition between vehicle (DMSO, 0% inhibition) and no enzyme (100% inhibition). […]

[2] = target: T2, SHP2 (Avi-G4SG4S-PTPN11(1-525)) (Homo sapiens, UniProt Q06124); test: Binding kinetic assay by surface plasmon resonance (SPR); settings: Biacore T200, single cycle kinetic, 1:1 Langmuir binding model; for koff: triplicate
T2 construct: (Avi-G4SG4S-PTPN11(1-525)); purchased Viva Biotech Ltd
Protocol: A binding assay for measuring SHP2 inhibitors binding kinetic was developed using a Biacore T200 Instrument (Cytiva, Sweden). […] Data analysis was performed by Biacore T200 Evaluation software (Cytiva), and kinetic parameters were evaluated by a global fitting according to a 1:1 Langmuir binding model. Each molecule was tested in triplicate on separate flow channels.

| SMILES | IC50 [1] [µM] | Residence time 1/koff SPR [2] [s] | koff [2] [s⁻¹] |
| --- | --- | --- | --- |
| Nc1nc(N2CCC3(CC2)Cn2nccc2[C@H]3N)cnc1Sc1ccn2ccnc2c1Cl [Example 44, (S)-1-(6-amino-5-((8-chloroimidazo[1,2-a]pyridin-7-yl)thio)pyrazin-2-yl)-4′H,6′H-spiro[piperidine-4,5′-pyrrolo[1,2-b]pyrazol]-4′-amine] | ≤ 0.05 | 15152 | 6.6e-05 |
| Cc1cn2ccc(Sc3cnc(N4CCC5(CC4)Cn4nccc4[C@H]5N)cn3)c(Cl)c2n1 [Example 43, (S)-1-(5-((8-chloro-2-methylimidazo[1,2-a]pyridin-7-yl)thio)pyrazin-2-yl)-4′H,6′H-spiro[piperidine-4,5′-pyrrolo[1,2-b]pyrazol]-4′-amine] | ≤ 0.05 | 18149 | 5.51e-05 |
